# Results published in patent US5728580A, “Methods and culture media for inducing single cell suspension in insect cell lines” (Cornell Research Foundation, Inc., priority 1996, dated 1998).
# System: TN5B1-4 cells
# Procedure: Three different molecular weights of dextran sulfate, derived from dextran of MW 5000, 20000, 500000, were evaluated.
# Compounds were evaluated for their ability to induce single cell suspension in 50-ml spinner flasks at 160 rpm. Control cells were passaged at least 10 times in suspension before they were used in any experiments. […] A qualitative score for reduction in clumping relative to control cells was assigned to cells grown in the presence of test compound at the end of the third passage. The protocol for enzyme treatment was the same, but the seeding density was 1×10^6 cells/ml and cells were evaluated after 24 h.
substance,measurement,value
DEAE-dextran [DEAE dextran],Toxic above this level,> 5 µg/mL
